# According to ChEMBL document CHEMBL1132816, “Arylacetamides as peripherally restricted kappa opioid receptor agonists” (Bioorg Med Chem Lett, 2000):
# Chains of the proteins cited; added tags and fusions are not shown. Lines headed by an entry give the natural chain unless they say otherwise; changes in a name come on top.
# UniProt P41145: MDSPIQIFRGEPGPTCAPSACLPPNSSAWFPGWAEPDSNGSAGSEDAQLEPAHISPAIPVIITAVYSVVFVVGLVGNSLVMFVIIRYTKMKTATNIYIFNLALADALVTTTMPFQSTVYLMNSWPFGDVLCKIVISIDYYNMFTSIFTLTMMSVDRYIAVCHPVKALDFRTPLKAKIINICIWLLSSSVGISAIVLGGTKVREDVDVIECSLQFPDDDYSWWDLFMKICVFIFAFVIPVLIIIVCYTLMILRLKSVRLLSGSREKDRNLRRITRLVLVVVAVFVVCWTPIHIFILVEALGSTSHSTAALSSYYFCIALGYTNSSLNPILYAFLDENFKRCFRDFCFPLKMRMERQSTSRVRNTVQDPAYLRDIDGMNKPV
# Target: Kappa-type opioid receptor (Homo sapiens, UniProt P41145)
# Test: In vitro binding affinity towards Opioid receptor kappa 1 by displacement of bound [3H]U-69593
row,Compound,Ki
1,CN(C(=O)Cc1cccc(C(F)(F)F)c1)[C@H](CN1CCCC1)c1ccccc1,0.064 nM
2,CN(C(=O)Cc1ccc(N)cc1)[C@H](CN1CCCC1)c1ccccc1,0.93 nM
3,CN(C(=O)Cc1ccccc1[N+](=O)[O-])[C@H](CN1CCCC1)c1ccccc1,0.41 nM
4,"CN(C(=O)Cc1ccc(Cl)c(Cl)c1)[C@H](CN1CCCC1)c1ccccc1 [ICI-199,441]",0.054 nM
5,CN(C(=O)Cc1ccccc1N(S(C)(=O)=O)S(C)(=O)=O)[C@H](CN1CCCC1)c1ccccc1,8.6 nM
6,CN(C(=O)Cc1ccc([N+](=O)[O-])cc1)[C@H](CN1CCCC1)c1ccccc1,1.1 nM
7,CN(C(=O)Cc1ccc(C(F)(F)F)cc1)[C@H](CN1CCCC1)c1ccccc1,0.058 nM
8,CN(C(=O)Cc1ccccc1C(F)(F)F)[C@H](CN1CCCC1)c1ccccc1,0.13 nM
9,CN(C(=O)Cc1cccc(N)c1)[C@H](CN1CCCC1)c1ccccc1,0.93 nM
10,CN(C(=O)Cc1cccc(N(S(C)(=O)=O)S(C)(=O)=O)c1)[C@H](CN1CCCC1)c1ccccc1,6 nM
11,CN(C(=O)Cc1ccc(Cl)c(Cl)c1N(S(C)(=O)=O)S(C)(=O)=O)[C@H](CN1CCCC1)c1ccccc1,0.096 nM
12,CN(C(=O)Cc1ccc(Cl)c(Cl)c1N)[C@H](CN1CCCC1)c1ccccc1,0.086 nM
13,CN(C(=O)Cc1ccc(N(S(C)(=O)=O)S(C)(=O)=O)cc1)[C@H](CN1CCCC1)c1ccccc1,25 nM
14,CN(C(=O)Cc1ccc(Cl)c(Cl)c1[N+](=O)[O-])[C@H](CN1CCCC1)c1ccccc1,0.091 nM
15,CN(C(=O)Cc1cccc([N+](=O)[O-])c1)[C@H](CN1CCCC1)c1ccccc1,0.065 nM
16,CN(C(=O)Cc1ccccc1N)[C@H](CN1CCCC1)c1ccccc1,0.58 nM
